Results taken from ChEMBL document CHEMBL5512603, “Development of de-novo coronavirus 3-chymotrypsin-like protease (3CLpro) inhibitors since COVID-19 outbreak: A strategy to tackle challenges of persistent virus infection” (Eur J Med Chem, 2024).

Target: Replicase polyprotein 1ab (Severe acute respiratory syndrome coronavirus 2, UniProt P0DTD1)
Test: Inhibition of SARS-CoV-2 recombinant main protease
Type: single protein

## O=c1[nH]cc(-c2cc(-c3cc(Cl)cc(OCCC(F)(F)F)c3)c(=O)n(-c3cccnc3)c2)c(=O)[nH]1
  IC50: 110 nM
